From US10988482B2, “IRAK4 inhibitor and use thereof” (BEIJING HANMI PHARMACEUTICAL CO., LTD., priority 2015, dated 2021)

Sequences of proteins named here, by UniProt entry; tags and fusion partners are left off.
UniProt Q9NWZ3, whole entry: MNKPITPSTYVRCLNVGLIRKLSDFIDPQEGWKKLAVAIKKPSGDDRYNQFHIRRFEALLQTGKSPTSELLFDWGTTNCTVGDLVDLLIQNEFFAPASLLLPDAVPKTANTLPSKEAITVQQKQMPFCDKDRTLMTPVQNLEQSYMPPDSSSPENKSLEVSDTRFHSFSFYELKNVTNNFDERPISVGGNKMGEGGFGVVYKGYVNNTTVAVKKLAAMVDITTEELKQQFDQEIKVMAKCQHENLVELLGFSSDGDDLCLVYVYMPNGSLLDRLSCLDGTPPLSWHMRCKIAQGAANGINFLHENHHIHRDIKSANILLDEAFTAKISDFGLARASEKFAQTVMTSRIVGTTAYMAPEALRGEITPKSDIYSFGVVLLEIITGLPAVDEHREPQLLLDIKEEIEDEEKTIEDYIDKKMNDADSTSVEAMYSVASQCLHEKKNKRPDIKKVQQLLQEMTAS

Target: IRAK4 kinase (Homo sapiens (Human), UniProt Q9NWZ3)
Assay: IRAK4 kinase activity inhibition assay (ADP-Glo)
Conditions: 10 μM ATP, MBP substrate, 60 min at 25° C.
Method: IRAK4 kinase (purchased from Life Technologies, Cat. No.: PR5612U) was diluted to 2 folds of the final concentration (the final concentration is 0.76 ng/μL) with reaction buffer (40 mM Tris-HCl, pH 7.5; 20 mM MgCl2; 0.1 mg/mL BSA; 1 mM DTT), and added to a 384-well plate at 5 μL/well. The test drugs were 10-fold serial diluted from 10 μM to set six concentration points and added to the test wells of the 384-well plate at 2.5 μL/well. After incubation for 10 min at 25° C., 10 μM of ATP and […] of an enzyme reaction substrate, myelin basic protein MBP (purchased from SignalChem, Cat. No.: M42-51N) were added at 2.5 µL/well, and reacted at 25° C. for 60 minutes. After the reaction was completed, the kinase activity assay was performed using the ADP-Glo™ kinase assay kit (purchased from Promega, Cat. No.: V9102) according to the manufacture's instruction, i.e., 10 μL of ADP-Glo reaction reagent was first added and reacted at 25° C. for 40 minutes, 10 μL of the solution to be tested was taken and mixed with 10 μL of ADP-Glo detection reagent, and reacted at 25° C. for 30 minutes. The kinase activity was then detected, and the IC50 values of the test drugs were calculated.

IC50: 100 to 1000 nM
SMILES: CN1CCC(C(=O)c2ccc(Nc3nc(N[C@H]4CC[C@H](O)CC4)c4sccc4n3)cc2Cl)CC1
